From ChEMBL document CHEMBL4330113, “Discovery of new quinazoline derivatives as irreversible dual EGFR/HER2 inhibitors and their anticancer activities - Part 1” (Bioorg Med Chem Lett, 2019)

Sequences of proteins named here, by UniProt entry; tags and fusion partners are left off.
UniProt P00533, whole entry: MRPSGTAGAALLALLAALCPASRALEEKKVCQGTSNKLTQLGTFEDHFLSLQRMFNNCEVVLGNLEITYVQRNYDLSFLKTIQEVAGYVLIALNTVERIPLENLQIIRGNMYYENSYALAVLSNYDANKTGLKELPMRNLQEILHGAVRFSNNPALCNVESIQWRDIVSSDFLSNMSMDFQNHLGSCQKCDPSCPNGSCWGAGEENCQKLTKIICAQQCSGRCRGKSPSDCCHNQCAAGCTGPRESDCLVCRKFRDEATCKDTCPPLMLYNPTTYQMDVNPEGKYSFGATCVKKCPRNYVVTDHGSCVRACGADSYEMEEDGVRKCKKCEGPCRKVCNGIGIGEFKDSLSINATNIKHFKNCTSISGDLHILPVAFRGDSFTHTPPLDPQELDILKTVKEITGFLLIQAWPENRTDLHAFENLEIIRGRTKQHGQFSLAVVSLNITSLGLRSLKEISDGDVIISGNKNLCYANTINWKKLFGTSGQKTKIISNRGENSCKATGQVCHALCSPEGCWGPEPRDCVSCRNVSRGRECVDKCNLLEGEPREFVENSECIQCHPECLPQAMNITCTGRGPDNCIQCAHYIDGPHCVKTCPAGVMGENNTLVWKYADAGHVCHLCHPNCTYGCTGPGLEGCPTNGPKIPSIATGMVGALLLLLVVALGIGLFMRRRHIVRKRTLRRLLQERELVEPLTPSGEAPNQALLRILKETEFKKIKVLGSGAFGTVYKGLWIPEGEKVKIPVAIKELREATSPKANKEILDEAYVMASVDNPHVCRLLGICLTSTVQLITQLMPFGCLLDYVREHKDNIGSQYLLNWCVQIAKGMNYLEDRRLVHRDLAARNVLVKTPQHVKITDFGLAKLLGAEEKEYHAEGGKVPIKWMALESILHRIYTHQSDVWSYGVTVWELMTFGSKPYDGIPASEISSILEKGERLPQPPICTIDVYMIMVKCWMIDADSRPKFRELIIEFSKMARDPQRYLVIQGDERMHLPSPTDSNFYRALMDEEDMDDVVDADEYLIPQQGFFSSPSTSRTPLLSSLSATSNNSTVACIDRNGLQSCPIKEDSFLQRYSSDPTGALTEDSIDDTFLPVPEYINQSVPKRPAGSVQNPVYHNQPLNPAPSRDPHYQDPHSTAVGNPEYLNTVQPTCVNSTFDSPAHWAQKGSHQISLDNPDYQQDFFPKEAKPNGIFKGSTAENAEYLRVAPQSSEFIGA

Biological target: Epidermal growth factor receptor (Homo sapiens, UniProt P00533)
Assay: Inhibition of recombinant human GST-tagged EGFR catalytic domain (668 to 1210 residues) expressed in baculovirus expression system using TK-biotin peptide as substrate measured after 10 mins by HTRF assay

## CCOCCOc1cc2ncnc(Nc3ccc(F)c(Cl)c3)c2cc1NC(=O)/C=C/CN(CC)CC
  IC50: 1.48 nM
